# Data as given in patent publication US7282344B2, “Cation conducting GABAA receptors and their use” (Neurosearch A/S, priority 2001, dated 2007).
# Sequences of proteins named here, by UniProt entry; tags and fusion partners are left off. A line that says so, or that is headed by a name, gives the form on record, which may keep a tag or linker. Residues count along the entry.
# UniProt P18507, 40-475, stated change not applied: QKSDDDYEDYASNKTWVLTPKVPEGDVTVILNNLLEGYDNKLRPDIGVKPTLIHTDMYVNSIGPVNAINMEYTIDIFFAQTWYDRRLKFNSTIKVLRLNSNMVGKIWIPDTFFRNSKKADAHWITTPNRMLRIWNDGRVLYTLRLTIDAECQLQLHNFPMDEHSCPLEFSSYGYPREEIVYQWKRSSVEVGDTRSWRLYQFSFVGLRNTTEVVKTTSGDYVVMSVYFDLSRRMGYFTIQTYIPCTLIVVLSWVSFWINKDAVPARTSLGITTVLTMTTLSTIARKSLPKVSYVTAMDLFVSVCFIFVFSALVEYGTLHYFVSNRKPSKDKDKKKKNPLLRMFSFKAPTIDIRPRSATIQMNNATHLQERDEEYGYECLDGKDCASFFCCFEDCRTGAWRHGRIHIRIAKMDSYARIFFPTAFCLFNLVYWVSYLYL
# UniProt P28472, with tags, fused parts or gaps DEL271-271/A273G/A274E/R275K: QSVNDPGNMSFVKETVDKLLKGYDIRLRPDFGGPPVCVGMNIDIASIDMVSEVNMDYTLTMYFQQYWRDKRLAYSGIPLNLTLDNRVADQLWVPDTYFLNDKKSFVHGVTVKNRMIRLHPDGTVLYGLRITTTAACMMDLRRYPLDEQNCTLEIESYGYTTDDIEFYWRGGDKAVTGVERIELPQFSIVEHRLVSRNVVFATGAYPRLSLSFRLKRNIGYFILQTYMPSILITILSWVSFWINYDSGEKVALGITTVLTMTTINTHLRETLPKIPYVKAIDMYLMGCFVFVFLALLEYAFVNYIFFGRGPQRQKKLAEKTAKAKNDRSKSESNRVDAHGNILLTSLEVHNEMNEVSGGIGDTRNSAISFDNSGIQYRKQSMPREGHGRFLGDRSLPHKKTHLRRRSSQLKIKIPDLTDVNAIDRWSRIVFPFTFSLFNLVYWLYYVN
# UniProt P47869, 29-451, stated change not applied: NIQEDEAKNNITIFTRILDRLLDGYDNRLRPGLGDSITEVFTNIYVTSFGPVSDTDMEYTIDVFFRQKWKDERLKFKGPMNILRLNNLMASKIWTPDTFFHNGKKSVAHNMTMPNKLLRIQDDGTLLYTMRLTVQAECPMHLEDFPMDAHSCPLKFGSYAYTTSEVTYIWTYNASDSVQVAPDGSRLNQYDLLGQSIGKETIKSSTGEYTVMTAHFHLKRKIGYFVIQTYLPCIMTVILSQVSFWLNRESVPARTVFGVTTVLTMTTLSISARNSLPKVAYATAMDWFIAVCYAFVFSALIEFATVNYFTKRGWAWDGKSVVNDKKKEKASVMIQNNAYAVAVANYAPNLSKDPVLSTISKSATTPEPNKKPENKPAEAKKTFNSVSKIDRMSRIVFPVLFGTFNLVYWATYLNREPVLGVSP
# Target: T1, GABAA receptor α2 β3 DSGEK γ2 (Homo sapiens, UniProt P18507+P28472+P47869, A273G/A274E/DEL271-271/R275K)
# T1 construct: expressed in transfected cells; host or cells: CHO-K1 (ATCC No. CCL61)
# Assay: [^3H]-Muscimol binding, mutated receptor
# Experimental: Binding studies were performed using standard methods. Membranes were prepared from CHO-K1 cells expressing recombinant GABAAR subunits. The cells were washed in PBS (Life Technologies), trypsinized, washed twice in tris-citrate buffer (50 mM, pH 7.1) and centrifuged for 10 minutes at 5,000 g.
# Membranes were resuspended in membrane wash buffer [20 mM KH2PO4K2HPO4, pH 7.5, 50 mM KCl, 0.025% (w/v) NaN3, and various protease inhibitors (1 mM EDTA, 2 mM benzamidine chloride, 0.1 mM benzethonium chloride, 50 U/ml bacitracin, 0.3 mM phenylmethylsulfonyl fluoride, 10 mg/I ovomucoid trypsin inhibitor, 10 mg/l soybean trypsin inhibitor)] and centrifuged for 30 minutes at 177,000 g and 4° C. The pellet was resuspended in binding assay buffer (20 mM KH2PO4/K2HPO4, pH 7.5 and 100 mM KCl) to a protein concentration of 1 mg/ml and homogenized just before use. Binding was performed with 1, 3, 10, 30, 100 or 300 nM of [^3H]-muscimol (20 Ci/mmol, Dupont-New England Nuclear) in triplicate in a final volume of 250 μl containing 200 μg of protein, and non-specific binding was determined in the presence of 1 mM GABA (Sigma). Samples were incubated at 4° C. for 30 minutes and labelled membranes were harvested on a Brandel cell harvester using GF/B filters (Whatman). The filters were washed with 3×4 ml binding assay buffer and the amount of radioactivity was determined by liquid scintillation counting. […]
smiles,measurement,value
"NCc1cc(=O)[nH]o1 [[^3H] Muscimol, Muscimol]","[^3H]muscimol binding, mutant versus wild-type",No changes
